Values quoted from earlier work in patent US20070043110A1, “Nontoxic potentiation sensitization of ovarian cancer therapy by supplementary treatment with vitamins” (Summa Health System, priority 2001, published 2007).

Conditions: oral 500 mg/Kg daily for 30 days; cited from earlier work

Q: For `CC1=CC(=O)c2ccccc2C1=O` [Vitamin K3, 2-Methyl-1,4-Naphthoquinone], which chronic toxicity is on record?
A: toxic
